# Measurements: US11096967B2, “Pharmaceutical composition for preventing or treating regulatory T cell-mediated diseases” (SCM LIFESCIENCE CO., LTD., priority 2016, dated 2021)
# B1: rhICOSL: recombinant human ICOSL (R&D research) (protein)
# chain: DTQEKEVRAMVGSDVELSCACPEGSRFDLNDVYVYWQTSESKTVVTYHIPQNSSLENVDSRYRNRALMSPAGMLRGDFSLRLFNVTPQDEQKFHCLVLSQSLGFQEVLSVEVTLHVAANFSVPVVSAPHSPSQDELTFTCTSINGYPRPNVYWINKTDNSLLDQALQNDTVFLNMRGLYDVVSVLRIARTPSVNIGCCIENVLLQQNLTVGSQTGNDIGERDKITENPVSTGEKNAATWS
# Legend:
# [1] = system: CD4^+ T cells; assay: Treg induction of CD4^+ T cells by rhICOSL (flow cytometry); type: cell-based, human; conditions: wells coated with 5 μg/mL rhICOSL, 2 days, vs non-treated control
# Procedure: (§1) For this Example, CD4^+ T cells were treated with rhICOSL, recombinant human ICOSL (5 μg/mL) (R&D research, Minneapolis, Minn., USA), for 2 days under Treg induction conditions, and their expression of CD25, ICOS and FoxP3 was analyzed by flow cytometry. Five independent experiments were carried out. In particular, for the administration of rhICOSL (R&D research, Minneapolis, Minn., USA), the wells were coated with 5 μg/mL rhICOSL at 37° C. for 4 hours. The purified CD4^+ cells were added to each of wells at 1×10^6 cells/mL, which were stimulated with 1 ng/mL IL-2 (eBiosciences), 5 ng/mL TGF-α (R&D research, Minneapolis, Minn., USA) and 0.1 μM all-trans-retinoic acid (atRA; PHASigma-Aldrich, St. Louis, Mo., USA) as well as 3 μg/mL anti-CD28 mAb (eBiosciences) for 2 to 5 days. hcMSCs were co-cultured with CD4^+ T cells at ratio of 1:10 (hcMSCs:T cells) for 2 days. After 2 days, hcMSCs were washed three times with cold phosphate-buffered saline (PBS) containing 0.05 mM ethylenediamine tetraacetic acid (EDTA) to detach lymphocytes from hcMSCs. Then, hcMSCs were trypsinized and washed twice with cold PBS-EDTA solution and stained with phycoerythrin (PE)-conjugated ICOSL antibody (BioLegend) to analyze ICOSL expression. The phosphorylation of Akt by rhICOSL treatment was confirmed by Western blotting. The results are illustrated in FIG. 13.
# [2] = system: PI3K-Akt signaling pathway; assay: Akt phosphorylation in CD4^+ T cells (Western blotting); type: cell-based, human; conditions: rhICOSL 5 μg/mL, Treg induction condition
# Procedure: as §1, with “The phosphorylation of Akt by rhICOSL treatment was confirmed by Western blotting. The results are illustrated in FIG. 13.” left out
# More particularly, CD4^+ T cells were pre-treated with LY294002 (5 μM) and GSK690693 (1 μM) for 30 min. […] Total Akt was determined. […]
molecule,measurement,setting,value
B1,FoxP3^+ICOS^+ Treg induction,[1],sufficiently promoted FoxP3^+ICOS^+ Treg induction
same,Akt phosphorylation,[2],significantly increased Akt phosphorylation
